# Values quoted from earlier work as cited in patent US7067489B2, “Hematopoietic stimulation” (Point Therapeutics, Inc., priority 1998, dated 2006).
# By UniProt entry, the sequences of proteins in these tests, tags left out.
# UniProt P27487, whole entry, species assumed: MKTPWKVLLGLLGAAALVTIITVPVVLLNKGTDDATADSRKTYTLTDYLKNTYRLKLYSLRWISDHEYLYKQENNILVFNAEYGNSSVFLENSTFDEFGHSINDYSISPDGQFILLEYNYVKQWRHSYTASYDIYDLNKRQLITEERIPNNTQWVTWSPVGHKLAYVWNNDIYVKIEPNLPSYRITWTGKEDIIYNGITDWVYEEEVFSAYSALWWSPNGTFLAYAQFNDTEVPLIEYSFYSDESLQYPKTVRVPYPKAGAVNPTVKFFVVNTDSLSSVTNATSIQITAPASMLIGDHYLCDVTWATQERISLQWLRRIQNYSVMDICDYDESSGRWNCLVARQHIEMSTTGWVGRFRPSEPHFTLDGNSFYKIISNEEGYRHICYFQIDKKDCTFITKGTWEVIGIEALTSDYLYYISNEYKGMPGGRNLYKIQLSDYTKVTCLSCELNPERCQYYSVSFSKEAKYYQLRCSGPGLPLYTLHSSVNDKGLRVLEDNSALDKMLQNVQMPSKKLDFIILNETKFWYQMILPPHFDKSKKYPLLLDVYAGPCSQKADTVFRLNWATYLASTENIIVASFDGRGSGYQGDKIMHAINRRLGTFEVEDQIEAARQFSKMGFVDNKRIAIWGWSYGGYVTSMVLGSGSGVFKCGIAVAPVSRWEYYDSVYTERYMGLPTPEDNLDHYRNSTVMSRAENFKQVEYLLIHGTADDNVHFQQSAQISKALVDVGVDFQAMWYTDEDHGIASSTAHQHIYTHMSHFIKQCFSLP
# Target: DPP-IV (CD26) (Homo sapiens, UniProt P27487)
# Conditions: background statement; cited from earlier work
compound,measurement,value
"CC(C)[C@H](N)C(=O)N1CCC[C@H]1B(O)O [PT-100, valine-prolineboronic acid]",inhibition of DPP-IV activity,potent inhibitor
